Measured values: US12514853B2, “Therapeutic dendrimer” (Starpharma Pty Ltd, priority 2018, dated 2026)

How the values were obtained:
[1] = test system: Metastatic Colorectal Cancer; conditions: cited from earlier work
[2] = Single dose pharmacokinetic study in rats; conditions: rat, single slow bolus IV, irinotecan 70 mg/kg; not detectable after 24 hours

Compound	tumour response, OR ([1]; cetuximab added to standard chemotherapy regimen vs chemotherapy alone, p=0.004)	risk of progression, HR ([1]; cetuximab added to standard chemotherapy regimen vs chemotherapy alone, p=0.048)	OS, HR ([1]; cetuximab added to standard chemotherapy regimen vs chemotherapy alone, p=0.31)	risk of progression (time) ([1]; cetuximab added to standard chemotherapy regimen, vs 8 months for chemotherapy alone) [months]	OS ([1]; cetuximab added to standard chemotherapy regimen, vs 18.6, not statistically significant)	tumour response ([1]; cetuximab added to standard chemotherapy regimen, vs 38.7% for chemotherapy alone) [%]	Free SN-38 at 120 hours [2]
cetuximab: anti-epidermal growth factor receptor (EGFR, also known as ErbB-1 or HER-1) antibody	1.40	0.85	0.93	8.9	19.9	46.9	
CCc1c2c(nc3ccc(OC(=O)N4CCC(N5CCCCC5)CC4)cc13)-c1cc3c(c(=O)n1C2)COC(=O)[C@]3(O)CC [Irinotecan, reference compound]							Not detectable
